The results in this text go back to ChEMBL document CHEMBL1148440, “4-(tetralin-1-yl)- and 4-(naphthalen-1-yl)alkyl derivatives of 1-cyclohexylpiperazine as sigma receptor ligands with agonist sigma2 activity” (J Med Chem, 2004).

Sequences of proteins named here, by UniProt entry; tags and fusion partners are left off.
UniProt Q99720, whole entry: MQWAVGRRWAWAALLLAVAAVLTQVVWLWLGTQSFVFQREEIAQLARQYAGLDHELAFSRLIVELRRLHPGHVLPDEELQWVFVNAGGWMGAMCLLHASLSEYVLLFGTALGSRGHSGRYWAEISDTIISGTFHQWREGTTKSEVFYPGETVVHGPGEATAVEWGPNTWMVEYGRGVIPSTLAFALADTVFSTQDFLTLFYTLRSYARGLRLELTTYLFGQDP

For the assay, the target named is Sigma non-opioid intracellular receptor 1 (Homo sapiens) (UniProt Q99720). The assay can be described thus: Binding affinity ratio of sigma 1 receptor to that of sigma 2 receptor. In outline:
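Sigma-1 binding used guinea pig brain membranes without cerebellum with (+)-[3H]pentazocine. […] IC50 came from 6–9 drug concentrations in two or three experiments with duplicate samples, then converted to apparent Ki. Ratios are computed from these Ki values.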

`Oc1cccc2c1CCCC2CCCN1CCN(C2CCCCC2)CC1` (stereo unspecified): the Ratio was found to be 2.
